# According to ChEMBL document CHEMBL2440009, “Discovery of GSK2656157: An Optimized PERK Inhibitor Selected for Preclinical Development” (ACS Med Chem Lett, 2013):
# Molecular target: T1, Eukaryotic translation initiation factor 2-alpha kinase 3 (Homo sapiens, UniProt Q9NZJ5)
# T1 sequence (Q9NZJ5 whole entry): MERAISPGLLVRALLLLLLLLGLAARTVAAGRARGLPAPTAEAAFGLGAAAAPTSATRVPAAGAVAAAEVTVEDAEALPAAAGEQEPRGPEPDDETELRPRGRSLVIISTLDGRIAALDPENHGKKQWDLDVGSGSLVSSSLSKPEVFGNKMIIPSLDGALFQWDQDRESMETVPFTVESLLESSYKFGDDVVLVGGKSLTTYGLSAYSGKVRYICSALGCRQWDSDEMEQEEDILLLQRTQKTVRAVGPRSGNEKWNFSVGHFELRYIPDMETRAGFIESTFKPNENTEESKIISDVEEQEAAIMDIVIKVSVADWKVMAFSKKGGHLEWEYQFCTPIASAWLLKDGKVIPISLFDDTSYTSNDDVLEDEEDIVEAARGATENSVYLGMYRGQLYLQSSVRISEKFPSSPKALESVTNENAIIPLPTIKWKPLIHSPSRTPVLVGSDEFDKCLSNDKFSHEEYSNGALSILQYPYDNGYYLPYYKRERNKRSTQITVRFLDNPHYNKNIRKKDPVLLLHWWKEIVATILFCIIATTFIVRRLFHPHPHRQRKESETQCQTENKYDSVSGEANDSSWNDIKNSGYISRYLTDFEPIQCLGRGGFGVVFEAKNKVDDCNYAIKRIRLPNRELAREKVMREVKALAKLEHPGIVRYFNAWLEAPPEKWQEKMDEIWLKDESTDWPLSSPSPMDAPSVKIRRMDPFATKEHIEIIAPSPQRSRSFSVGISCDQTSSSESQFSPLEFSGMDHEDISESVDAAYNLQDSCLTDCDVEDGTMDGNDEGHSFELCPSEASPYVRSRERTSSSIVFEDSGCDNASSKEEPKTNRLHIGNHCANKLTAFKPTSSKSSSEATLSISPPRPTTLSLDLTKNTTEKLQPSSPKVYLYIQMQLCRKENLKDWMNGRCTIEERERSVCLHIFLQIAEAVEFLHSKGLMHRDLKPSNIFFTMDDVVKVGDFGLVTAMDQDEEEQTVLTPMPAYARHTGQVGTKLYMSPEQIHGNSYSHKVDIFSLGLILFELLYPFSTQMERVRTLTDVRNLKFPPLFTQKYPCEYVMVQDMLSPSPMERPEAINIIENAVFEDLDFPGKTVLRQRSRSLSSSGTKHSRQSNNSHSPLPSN
# Assay: Inhibition of thapsigargin-induced autophosphorylation of PERK in human A549 cells preincubated for 1 hr followed by thapsigargin-induction measured after 1 hr by Western blotting analysis
# Type: cell-based
structure (smiles),measurement,value
Cn1cc(-c2ccc3c(c2)CCN3C(=O)Cc2cccc(C(F)(F)F)c2)c2c(N)ncnc21,IC50,< 30 nM
